From paper PMC6789782, “Safety Pharmacological Evaluation of the Coffee Component, Caffeoylquinic Acid, and Its Metabolites, Using Ex Vivo and In Vitro Profiling Assays” (Pharmaceuticals, 2019)

System: rat hippocampal slices

O=C(O)/C=C/c1ccc(O)c(O)c1 [CA, caffeic acid]
Normalized PS AUC: 1.15 ± 0.02
